Source: article PMC10023787, “Trio-pharmacophore DNA-encoded chemical library for simultaneous selection of fragments and linkers” (Nature Communications, 2023)

By UniProt entry, the sequences of proteins in these tests, tags left out. Residues count along the entry.
UniProt P08253, 110-660 limits assumed: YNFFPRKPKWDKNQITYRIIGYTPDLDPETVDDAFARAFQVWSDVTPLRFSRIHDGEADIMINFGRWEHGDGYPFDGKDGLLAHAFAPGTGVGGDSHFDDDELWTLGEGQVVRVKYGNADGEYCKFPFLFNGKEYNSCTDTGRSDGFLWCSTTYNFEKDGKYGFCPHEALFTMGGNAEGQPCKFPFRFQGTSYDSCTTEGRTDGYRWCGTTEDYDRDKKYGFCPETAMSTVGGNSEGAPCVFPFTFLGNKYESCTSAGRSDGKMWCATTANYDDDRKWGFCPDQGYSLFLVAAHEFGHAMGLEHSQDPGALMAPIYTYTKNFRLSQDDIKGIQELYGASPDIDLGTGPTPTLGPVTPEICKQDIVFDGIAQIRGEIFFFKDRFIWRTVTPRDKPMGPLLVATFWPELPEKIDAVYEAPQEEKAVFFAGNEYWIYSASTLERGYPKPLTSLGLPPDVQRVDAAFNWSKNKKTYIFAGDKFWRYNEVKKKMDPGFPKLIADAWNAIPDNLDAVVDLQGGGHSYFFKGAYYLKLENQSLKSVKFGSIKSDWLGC
UniProt P14780, 107-707 limits assumed: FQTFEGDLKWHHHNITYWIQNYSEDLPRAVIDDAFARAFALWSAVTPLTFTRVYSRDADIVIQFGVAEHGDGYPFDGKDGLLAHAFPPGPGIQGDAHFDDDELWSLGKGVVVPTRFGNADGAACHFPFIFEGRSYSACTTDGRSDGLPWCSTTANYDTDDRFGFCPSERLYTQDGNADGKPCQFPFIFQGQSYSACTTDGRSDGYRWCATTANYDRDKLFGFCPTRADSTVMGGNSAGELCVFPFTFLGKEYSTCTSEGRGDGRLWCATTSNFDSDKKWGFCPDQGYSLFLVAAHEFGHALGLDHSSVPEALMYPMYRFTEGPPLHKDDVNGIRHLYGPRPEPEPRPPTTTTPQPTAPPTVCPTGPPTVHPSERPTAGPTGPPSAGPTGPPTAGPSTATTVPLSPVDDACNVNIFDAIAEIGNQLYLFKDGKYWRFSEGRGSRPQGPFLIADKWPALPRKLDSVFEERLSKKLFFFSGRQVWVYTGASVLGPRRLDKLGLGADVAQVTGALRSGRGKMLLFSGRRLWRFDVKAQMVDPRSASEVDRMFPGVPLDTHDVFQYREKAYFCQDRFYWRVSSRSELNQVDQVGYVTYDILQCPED

Tests used:
human MMP-2 = human MMP-2 (Homo sapiens, UniProt P08253); assay: MMP-2 inhibition assay (fluorogenic peptide substrate)
MMP-9 = MMP-9 (Homo sapiens, UniProt P14780); assay: MMP-9 inhibition assay (fluorogenic peptide substrate); set-up: scale not given here

Mean (dose-response, Supplementary fig 17) (human MMP-2; concentration 0.0156 µM): 102.46
Mean (dose-response, Supplementary fig 17) (human MMP-2; concentration 0.08 µM): 101.59
Mean (dose-response, Supplementary fig 17) (human MMP-2; concentration 0.39 µM): 96.57
Mean (dose-response, Supplementary fig 17) (human MMP-2; concentration 1.95 µM): 90.47
Mean (dose-response, Supplementary fig 17) (human MMP-2; concentration 9.75 µM): 82.03
Mean (dose-response, Supplementary fig 17) (human MMP-2; concentration 48.76 µM): 87.12
Mean (dose-response, Supplementary fig 17) (human MMP-2; concentration 243.80 µM): 87.61
Mean (dose-response, Supplementary fig 17) (human MMP-2; concentration 1219.00 µM): 69.40
Mean (dose-response, Supplementary fig 17) (MMP-9; concentration 0.08 µM): 94.12
Mean (dose-response, Supplementary fig 17) (MMP-9; concentration 0.39 µM): 98.08
Mean (dose-response, Supplementary fig 17) (MMP-9; concentration 1.95 µM): 87.17
Mean (dose-response, Supplementary fig 17) (MMP-9; concentration 9.75 µM): 92.28
Mean (dose-response, Supplementary fig 17) (MMP-9; concentration 48.76 µM): 93.77
Mean (dose-response, Supplementary fig 17) (MMP-9; concentration 243.80 µM): 96.99
Mean (dose-response, Supplementary fig 17) (MMP-9; concentration 1219.00 µM): 71.64
Compound: O=C(NCC12CC3CC(CC(C3)C1)C2)c1cncc(O)c1
